Structures are written as SMILES.

For this assay, the target named is T1, P2X purinoceptor 7 (Rattus norvegicus, UniProt Q64663).
T1 sequence (Q64663 whole entry): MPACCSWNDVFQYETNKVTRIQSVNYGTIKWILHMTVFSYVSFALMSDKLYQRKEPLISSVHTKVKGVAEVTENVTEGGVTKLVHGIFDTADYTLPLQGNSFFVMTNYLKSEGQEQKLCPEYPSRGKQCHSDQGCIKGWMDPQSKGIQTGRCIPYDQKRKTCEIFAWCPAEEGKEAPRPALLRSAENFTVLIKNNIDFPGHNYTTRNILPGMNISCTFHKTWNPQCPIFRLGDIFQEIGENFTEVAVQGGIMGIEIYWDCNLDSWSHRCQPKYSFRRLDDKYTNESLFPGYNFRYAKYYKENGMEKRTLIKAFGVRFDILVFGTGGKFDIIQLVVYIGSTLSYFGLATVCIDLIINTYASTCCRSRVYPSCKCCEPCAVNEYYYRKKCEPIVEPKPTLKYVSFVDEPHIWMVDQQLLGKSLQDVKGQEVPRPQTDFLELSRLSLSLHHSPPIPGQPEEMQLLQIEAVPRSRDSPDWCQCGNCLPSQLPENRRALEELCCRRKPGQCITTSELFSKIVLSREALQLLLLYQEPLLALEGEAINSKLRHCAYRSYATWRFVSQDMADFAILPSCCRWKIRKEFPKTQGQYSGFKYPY
As to the kind of experiment: Antagonist activity at rat P2X7 receptor assessed as inhibition of ATP-induced Ca2+ flux by FLIPR assay. (Calcium flux is commonly read through the fluorescence of an indicator in the cells.)

The IC50 is the point on the concentration scale where inhibition reaches its midpoint. For `CC1c2nnc(-c3ccc(F)cc3)n2CCN1C(=O)c1cccc(C(F)(F)F)c1Cl` (racemic), the IC50 amounted to 7.45 µM.
